Source: publication PMC12120261, “Responsiveness of different MET tumour alterations to type I and type II MET inhibitors” (Clinical and Translational Medicine, 2025)

Test system: stage IV, CD47‐MET fusion‐positive non‐small‐cell lung cancer (NSCLC)
Conditions: Pt. 2, CD47‐MET NSCLC, before emergence of MET G1090A

`C[C@@H](Oc1cc(-c2cnn(C3CCNCC3)c2)cnc1N)c1c(Cl)ccc(F)c1Cl` [crizotinib, Crizotinib] was tested, and the clinical response was “responded”.
